Columns and labels:
Experiment in all cases: Composite Synergy Score, Cell-Titer Glo 72 hours, dose matrix with MRTX1133
Assay type in all cases: cell-based
Conditions in all cases: combined with MRTX1133
Panc0813 = system: Panc0813
Description: (§1) A panel of colon, pancreatic, gastric and endometrial cell lines harboring KRas G12D mutations was assembled to determine whether combining pan ErbB family inhibitors with exemplary KRas G12D inhibitors disclosed herein results in synergistic activity. The collection included SNU61 (colon, KCLB #00061), LS180 (colon, ATCC #CL-187), Panc 05.04 (pancreas, ATCC #CRL-2557), Panc 02.03 (pancreas ATCC #CRL-2553), SNU-407 (colon, AddexBio #C0009016), LS513 (colon, ATCC #CRL-2134), HPAC (pancreas, ATCC #CRL-2119), AGS (gastric, ATCC #CRL-1739), SNU-1197 (colon, KCLB #01197.1), SNU-1033 (colon, KCLB #01033), SNU-410 (pancreas, KCLB #00410), HEC-1-B (endometrial, ATCC #HTB-113), SU.86.86 (pancreas, ATCC #CRL-1837), SNU-C2B (colon, ATCC #CCL-250), Panc 08.13 (pancreas, ATCC #CRL-2551), SUIT-2 (pancreas, JCRB #JCRB1094), HPAF-II (pancreas, ATCC #CRL-1997), Panc 04.03 (pancreas, ATCC #CRL-2555), HCC-1588 (lung, KCLB #71588), GP2D (colon, SigmaAldrich #95090714), AsPC-1 (pancreas, ATCC CRL-1682), SW 1990 (pancreas, ATCC CRL-2172), and PANC-1 (pancreas, ATCC #CRL-1469).
(§2) Assays for determining the synergy score for the pairwise combinations for each cell line were performed in triplicate. Three 96-well plates plus an additional 4 wells of a separate 96-well control plate for determining baseline luminescence were seeded with 2000 cells/well of a particular cell line in a total volume of 90 μl of a suitable growth medium for that cell line, e.g., RPMI 1640 medium supplemented with 10% FBS and any cell line specific reagents need for growth. The plates were incubated overnight at 37° C. in a 5% CO2 atmosphere.
(§3) To each of the designated baseline wells, 30 μl of Cell-Titer Glo reagent (CTG; Promega Corporation) was added to each well and the plates were incubated for 20 min with shaking at room temperature. Baseline luminescence was quantitated using a BMG ClarioStar multimode plate reader according to the manufacturer's instructions.
(§4) A series of working stock 1000× drug dilutions in 100% DMSO was prepared that includes an 8 point single agent dilution of MRTX 1133 and a 5-point single agent dilution of the pan ErbB family inhibitor. The dilutions used for MRTX1133 and the pan ErbB family inhibitor varied for each individual compound but were in the range of 3- to 6-fold/serial dilution.
(§5) A 10× intermediate dosing plate was prepared in serum free RPMI medium that contains arrayed single agent dilutions MRTX1133 or the pan ErbB family inhibitor. In addition, a matrix of 40 dilution combinations of MRTX1133 and the pan ErbB family inhibitor was prepared as test samples.
(§6) To each corresponding well of the three 96-well plates seeded with the appropriate cell line above, 10 μl of each 10× single agent and the 40 combinations of the dose matrix was added and the plates were incubated for 72 hours at 37 C in 5% CO2 atmosphere. A 30 μl aliquot of Cell-Titer Glo reagent (CTG) was added to each test well, the plates were incubated for 20 min with shaking at room temperature, and luminescence was quantitated using a BMG ClarioStar multimode plate reader according to the manufacturer's instructions.
(§7) The output of the data from each mathematical model is the assignment of a relative synergy score. The data reported in Table 1 are the aggregate sum of the Loewe additivity, Bliss independence, Highest Single Agent and ZIP scores (“Composite Synergy Score”).
(§8) A custom R-script was created, integrating open source Bioconductor packages, to batch process metadata files containing experimental parameters and raw data files. Various numerical and graphical outputs were generated to summarize the data. Single agent parameters were generated using GRmetrics Clark N, Hafner M, Kouril M, Muhlich J, Niepel M, Williams E, Sorger P, Medvedovic M (2016). “GRcalculator: an online tool for calculating and mining drug response data.” doi: 10.6084/m9.figshare.4244408.v1, http://www.grcalculator.org/. […]

AGS = system: AGS
Description: as §1, §2, §3, §4, §5, §6, §7, §8

ASPC1 = system: ASPC1
Description: as §1, §2, §3, §4, §5, §6, §7, §8

SU8684 = system: SU8684
Description: as §1, §2, §3, §4, §5, §6, §7, §8

HPAC = system: HPAC
Description: as §1, §2, §3, §4, §5, §6, §7, §8

GP2D = system: GP2D
Description: as §1, §2, §3, §4, §5, §6, §7, §8

Panc1005 = system: Panc1005
Description: as §1, §2, §3, §4, §5, §6, §7, §8

SNU407 = system: SNU407
Description: as §1, §2, §3, §4, §5, §6, §7, §8

LS513 = system: LS513
Description: as §1, §2, §3, §4, §5, §6, §7, §8

SW1990 = system: SW1990
Description: as §1, §2, §3, §4, §5, §6, §7, §8

Panc0504 = system: Panc0504
Description: as §1, §2, §3, §4, §5, §6, §7, §8

HPAFII = system: HPAFII
Description: as §1, §2, §3, §4, §5, §6, §7, §8

SNU410 = system: SNU410
Description: as §1, §2, §3, §4, §5, §6, §7, §8

SNU1033 = system: SNU1033
Description: as §1, §2, §3, §4, §5, §6, §7, §8

SNU1197 = system: SNU1197
Description: as §1, §2, §3, §4, §5, §6, §7, §8

Panc1 = system: Panc1
Description: as §1, §2, §3, §4, §5, §6, §7, §8

HCC1588 = system: HCC1588
Description: as §1, §2, §3, §4, §5, §6, §7, §8

Hec1B = system: Hec1B
Description: as §1, §2, §3, §4, §5, §6, §7, §8

SNU61 = system: SNU61
Description: as §1, §2, §3, §4, §5, §6, §7, §8

LS180 = system: LS180
Description: as §1, §2, §3, §4, §5, §6, §7, §8

Panc0203 = system: Panc0203
Description: as §1, §2, §3, §4, §5, §6, §7, §8

Panc0403 = system: Panc0403
Description: as §1, §2, §3, §4, §5, §6, §7, §8

SNUC2B = system: SNUC2B
Description: as §1, §2, §3, §4, §5, §6, §7, §8

**Q.** Which “Composite Synergy Score” value (Panc0813) does the source give for “Cetuximab: anti-EGFR monoclonal antibody approved for human clinical use (ImClone)” here?
**A.** Its value is 32.

**Q.** What about the “Composite Synergy Score” value (AGS) of the same substance?
**A.** Its value is 53.

**Q.** What about the “Composite Synergy Score” value (ASPC1) of the same substance?
**A.** The value was 34.

**Q.** And the “Composite Synergy Score” value (SU8684)?
**A.** The value was 26.

**Q.** And the “Composite Synergy Score” value (HPAC)?
**A.** Its value is 33.

**Q.** And the “Composite Synergy Score” value (GP2D)?
**A.** The value was 48.

**Q.** And the “Composite Synergy Score” value (Panc1005)?
**A.** Its value is 29.

**Q.** And the “Composite Synergy Score” value (SNU407)?
**A.** The value was 23.

**Q.** And the “Composite Synergy Score” value (LS513)?
**A.** The value was 62.

**Q.** What about the “Composite Synergy Score” value (SW1990) of the same substance?
**A.** Its value is 16.

**Q.** And the “Composite Synergy Score” value (Panc0504)?
**A.** The value was 44.

**Q.** And the “Composite Synergy Score” value (HPAFII)?
**A.** Its value is 31.

**Q.** And the “Composite Synergy Score” value (SNU410)?
**A.** The value was −2.

**Q.** What about the “Composite Synergy Score” value (SNU1033) of the same substance?
**A.** The value was 29.

**Q.** What about the “Composite Synergy Score” value (SNU1197) of the same substance?
**A.** The value was 6.

**Q.** What about the “Composite Synergy Score” value (Panc1) of the same substance?
**A.** The value was −18.

**Q.** What about the “Composite Synergy Score” value (HCC1588) of the same substance?
**A.** The value was −7.

**Q.** And the “Composite Synergy Score” value (Hec1B)?
**A.** Its value is 4.

**Q.** What about the “Composite Synergy Score” value (SNU61) of the same substance?
**A.** Its value is 52.

**Q.** And the “Composite Synergy Score” value (LS180)?
**A.** The value was 65.

**Q.** And the “Composite Synergy Score” value (Panc0203)?
**A.** Its value is 47.

**Q.** And the “Composite Synergy Score” value (Panc0403)?
**A.** The value was 40.

**Q.** And the “Composite Synergy Score” value (SNUC2B)?
**A.** The value was 50.

From patent US20240408099A1, “COMBINATION […] OF KRAS G12D INHIBITORS WITH Pan ErbB FAMILY INHIBITORS” (MIRATI THERAPEUTICS, INC., priority 2021, published 2024)
